This is an account of results in ChEMBL document CHEMBL2321664, “L-Aminoacyl-triazine derivatives are isoform-selective PI3Kβ inhibitors that target non-conserved Asp862 of PI3Kβ” (ACS Med Chem Lett, 2013).

Protein sequences, listed by entry. Tags and fused reporters are not part of them. Lines headed by an entry give the natural chain unless they say otherwise; changes in a name come on top.
UniProt P42336, whole entry: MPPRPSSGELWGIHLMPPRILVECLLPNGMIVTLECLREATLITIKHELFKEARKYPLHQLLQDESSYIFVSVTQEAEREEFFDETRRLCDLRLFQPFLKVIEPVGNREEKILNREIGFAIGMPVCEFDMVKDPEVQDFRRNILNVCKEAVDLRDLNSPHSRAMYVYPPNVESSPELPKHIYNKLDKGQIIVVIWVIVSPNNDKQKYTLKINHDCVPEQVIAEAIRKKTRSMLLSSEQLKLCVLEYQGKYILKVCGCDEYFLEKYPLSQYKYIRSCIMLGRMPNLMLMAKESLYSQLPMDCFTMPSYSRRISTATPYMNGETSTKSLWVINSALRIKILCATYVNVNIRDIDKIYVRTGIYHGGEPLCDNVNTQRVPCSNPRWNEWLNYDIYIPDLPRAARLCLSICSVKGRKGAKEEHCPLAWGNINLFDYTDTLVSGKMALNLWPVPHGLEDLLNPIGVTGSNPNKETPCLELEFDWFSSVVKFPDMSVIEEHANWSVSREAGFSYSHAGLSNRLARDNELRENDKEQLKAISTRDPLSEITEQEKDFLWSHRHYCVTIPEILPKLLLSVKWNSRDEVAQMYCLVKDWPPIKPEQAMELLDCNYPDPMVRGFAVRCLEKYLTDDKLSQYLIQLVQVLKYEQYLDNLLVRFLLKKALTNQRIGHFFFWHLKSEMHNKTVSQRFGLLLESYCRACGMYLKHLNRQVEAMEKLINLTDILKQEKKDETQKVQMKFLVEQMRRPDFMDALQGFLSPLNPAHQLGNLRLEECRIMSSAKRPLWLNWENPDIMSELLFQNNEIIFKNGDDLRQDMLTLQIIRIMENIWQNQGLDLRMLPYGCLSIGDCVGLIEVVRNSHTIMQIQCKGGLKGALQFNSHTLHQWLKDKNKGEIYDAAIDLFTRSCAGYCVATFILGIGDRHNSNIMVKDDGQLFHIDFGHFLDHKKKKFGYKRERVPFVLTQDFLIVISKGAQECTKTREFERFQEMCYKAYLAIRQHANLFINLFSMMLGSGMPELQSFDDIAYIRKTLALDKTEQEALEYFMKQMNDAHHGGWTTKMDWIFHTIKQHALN
UniProt P48736: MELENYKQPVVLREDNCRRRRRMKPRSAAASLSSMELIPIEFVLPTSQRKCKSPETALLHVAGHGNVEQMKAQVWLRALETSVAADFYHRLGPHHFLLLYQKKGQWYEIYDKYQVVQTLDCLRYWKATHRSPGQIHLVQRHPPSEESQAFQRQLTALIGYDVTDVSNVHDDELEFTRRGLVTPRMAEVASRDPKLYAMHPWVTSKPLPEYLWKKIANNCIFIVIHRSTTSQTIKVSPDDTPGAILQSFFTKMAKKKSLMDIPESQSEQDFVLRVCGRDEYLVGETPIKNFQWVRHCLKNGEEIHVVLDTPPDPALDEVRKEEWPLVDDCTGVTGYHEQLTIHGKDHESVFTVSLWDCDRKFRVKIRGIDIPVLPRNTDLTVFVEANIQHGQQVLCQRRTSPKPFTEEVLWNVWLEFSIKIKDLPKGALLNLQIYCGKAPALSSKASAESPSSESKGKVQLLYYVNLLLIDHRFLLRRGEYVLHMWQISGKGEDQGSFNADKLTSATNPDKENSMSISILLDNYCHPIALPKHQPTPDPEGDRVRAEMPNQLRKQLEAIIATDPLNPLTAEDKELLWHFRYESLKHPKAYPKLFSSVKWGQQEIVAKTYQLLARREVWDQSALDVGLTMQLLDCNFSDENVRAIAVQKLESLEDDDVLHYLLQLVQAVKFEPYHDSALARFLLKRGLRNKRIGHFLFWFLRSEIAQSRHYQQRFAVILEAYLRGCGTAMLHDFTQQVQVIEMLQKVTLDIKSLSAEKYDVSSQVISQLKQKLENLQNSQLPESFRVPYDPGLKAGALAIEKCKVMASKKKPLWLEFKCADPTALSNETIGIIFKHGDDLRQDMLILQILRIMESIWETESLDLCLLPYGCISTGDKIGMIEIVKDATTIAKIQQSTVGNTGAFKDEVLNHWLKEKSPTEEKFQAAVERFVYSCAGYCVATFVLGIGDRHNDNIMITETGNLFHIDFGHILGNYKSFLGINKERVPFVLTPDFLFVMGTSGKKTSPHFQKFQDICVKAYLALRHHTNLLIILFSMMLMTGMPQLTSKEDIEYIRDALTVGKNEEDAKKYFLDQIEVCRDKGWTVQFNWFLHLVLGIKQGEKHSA

Structures are written as SMILES.

One may read the IC50 as the midpoint of a concentration-inhibition curve.

Experiment [1] addresses T1, Phosphatidylinositol 4,5-bisphosphate 3-kinase catalytic subunit alpha isoform (Homo sapiens, UniProt P42336). Description: Inhibition of wild type PI3K-alpha (unknown origin) assessed as decrease in ATP consumption using phosphatidylinositol bisphosphate and 100 uM ATP as substrate measured after 60 mins by luminescence assay.
For experiment [2], the target named is Phosphatidylinositol 4,5-bisphosphate 3-kinase catalytic subunit gamma isoform (Homo sapiens, UniProt P48736). Description: Inhibition of PI3K-gamma (unknown origin) assessed as decrease in ATP consumption using phosphatidylinositol bisphosphate and 10 uM ATP as substrate measured after 60 mins by luminescence assay.
Experiment [3] deals with T1, Phosphatidylinositol 4,5-bisphosphate 3-kinase catalytic subunit alpha isoform. Description: Inhibition of PI3K-alpha (unknown origin) assessed as decrease in ATP consumption using phosphatidylinositol bisphosphate and 10 uM ATP as substrate measured after 60 mins by luminescence assay.

`C[C@H](N)C(=O)N1CCN(c2nc(N3CCOCC3)nc(-n3c(C(F)F)nc4ccccc43)n2)CC1`: the IC50 was 8.2 µM in experiment [1], 3.6 µM in experiment [2] and 3.5 µM in experiment [3].
As to `C[C@@H](N)C(=O)N1CCN(c2nc(N3CCOCC3)nc(-n3c(C(F)F)nc4ccccc43)n2)CC1`, the IC50 in experiment [3] is 3.7 µM.
